Laboratory results as given in ChEMBL document CHEMBL1121425, “4-Amino-4-arylcyclohexanones and their derivatives, a novel class of analgesics. 1. Modification of the aryl ring” (1980).

What was measured:
Mus musculus [1] = assay: Tested for narcotic antagonistic property using tail-flick procedure in mice after giving subcutaneous dose of 6.3 mg/kg of morphine sulphate
Mus musculus [2] = organism: Mus musculus; assay: Tested for sedation using inclined screen test in mice
Mus musculus [3] = organism: Mus musculus; assay: Tested for analgesic activity using HCl writhe assay in mice in mice
Mus musculus [4] = organism: Mus musculus; assay: Tested for analgesic activity using tail pinch assay in mice
Mus musculus [5] = organism: Mus musculus; assay: Tested for analgesic activity using tail flick assay in mice

SMILES	ED50 (Mus musculus [1]) [mg/kg]	ED50 (Mus musculus [2]) [mg/kg]	ED50 (Mus musculus [3]) [mg/kg]	ED50 (Mus musculus [4]) [mg/kg]	ED50 (Mus musculus [5]) [mg/kg]
CN(C)C1(c2cccc(Cl)c2)CCC(=O)CC1	> 100	> 100	–	–	–
CN(C)C1(c2ccc(F)cc2)CCC(=O)CC1	> 50	> 50	–	–	–
Cc1cccc(C2(N(C)C)CCC(=O)CC2)c1	> 100	> 100	–	–	–
Cc1cccc(C2(N(C)C)CCC3(CC2)OCCO3)c1	> 100	> 100	–	–	–
CN(C)C1(c2ccc(Cl)cc2Cl)CCC2(CC1)OCCO2	> 100	> 100	–	–	–
COc1ccc(C2(N(C)C)CCC(=O)CC2)cc1	> 25	> 25	–	–	–
COc1ccc(C2(N(C)C)CCC(=O)CC2)cc1OC	> 25	> 25	–	–	–
CN(C)C1(c2ccc(Cl)cc2)CCC2(CC1)OCCO2	> 25	> 25	–	–	–
CN(C)C1(c2ccc(Cl)cc2)CCC(=O)CC1	> 25	> 25	–	–	–
CN(C)C1(c2ccccc2)CCC2(CC1)OCCO2	> 100	> 100	–	–	–
CCOC(=O)C1(c2ccccc2)CCN(C)CC1.Cl	> 100	> 100	15	29	22
CN(C)C1(c2cccc(Cl)c2)CCC2(CC1)OCCO2	> 100	> 100	–	–	–
CN(C)C1(c2ccccc2Cl)CCC(=O)CC1	> 100	> 100	–	–	–
COc1ccc(C2(N(C)C)CCC3(CC2)OCCO3)cc1OC	> 100	> 100	–	–	–
CN(C)C1(c2ccccc2)CCC(=O)CC1	> 100	> 100	–	–	–
CN(C)C1(c2ccc(Cl)cc2Cl)CCC(=O)CC1	> 100	> 100	–	–	–
CN(C)C1(c2ccc(F)cc2)CCC2(CC1)OCCO2	> 25	> 25	–	–	–

SMILES	ED50 (Mus musculus [1]) [mg/kg]	ED50 (Mus musculus [2]) [mg/kg]	ED50 (Mus musculus [3]) [mg/kg]	ED50 (Mus musculus [4]) [mg/kg]	ED50 (Mus musculus [5]) [mg/kg]
CN(C)C1(c2ccccc2Cl)CCC2(CC1)OCCO2	> 100	> 100	–	–	–
CN(C)C1(c2ccc(C(C)(C)C)cc2)CCC(=O)CC1	> 100	> 100	–	–	–
Cc1ccc(C2(N(C)C)CCC3(CC2)OCCO3)cc1	> 25	> 25	–	–	–
CN(C)C1(c2ccc(Br)cc2)CCC2(CC1)OCCO2	> 100	> 100	–	–	–
Cc1ccc(C2(N(C)C)CCC(=O)CC2)cc1	> 50	> 50	–	–	–
CN(C)C1(c2cccs2)CCC2(CC1)OCCO2	> 100	> 100	–	–	–
CN(C)C1(c2ccc(C(C)(C)C)cc2)CCC2(CC1)OCCO2	> 100	> 100	–	–	–
CN(C)C1(c2cccs2)CCC(=O)CC1	> 100	> 100	–	–	–
COc1cccc(C2(N(C)C)CCC(=O)CC2)c1	> 100	> 100	–	–	–
Cc1ccccc1C1(N(C)C)CCC(=O)CC1	> 100	> 100	–	–	–
CN(C)C1(c2cccc3ccccc23)CCC2(CC1)OCCO2	> 100	> 100	–	–	–
Cc1ccccc1C1(N(C)C)CCC2(CC1)OCCO2	> 100	> 100	–	–	–
CN(C)C1(c2ccc(Cl)c(Cl)c2)CCC2(CC1)OCCO2	> 100	> 100	–	–	–
COc1cccc(C2(N(C)C)CCC3(CC2)OCCO3)c1	> 100	> 100	–	–	–
CN(C)C1(c2ccc(Cl)c(Cl)c2)CCC(=O)CC1	> 100	> 100	–	–	–
CN(C)C1(c2cccc3ccccc23)CCC(=O)CC1	> 100	> 100	–	–	–
